Paper PMC5413030, “Radiochemistry on electrodes: Synthesis of an ^18F-labelled and in vivo stable COX-2 inhibitor” (PLoS ONE, 2017)

Key:
[1] = mouse
[2] = in vivo

| SMILES | free 18F-fluoride in blood ([1]; female, in vivo) | time for background to subside ([2]; C57BL6, mouse) [h] | bone retention / defluorination ([2]; mouse) | excretion from blood ([2]; mouse) | metabolic behavior in vivo [1] |
| --- | --- | --- | --- | --- | --- |
| NS(=O)(=O)c1ccc(-n2nc(C(F)(F)F)c([18F])c2-c2ccccc2)cc1 | no free ^18F-fluoride present | ≤ 1 | no bone retention or defluorination | excreted from blood within an hour | – |
| NS(=O)(=O)c1ccc(-n2nc(C(F)(F)F)c(F)c2-c2ccccc2)cc1 [compound 1] | – | – | – | – | remains virtually unchanged |
